Test results from PubChem BioAssay AID602296 (Broad Institute, 2012).
The entries are a selection whose mix differs from that of the whole data set. Results filed as inconclusive are left out. Calls of active or inactive are those of the source.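 The calls were made as follows: active = fitted activation curve crossing 40% at a concentration no higher than the sample's top valid tested dose; inconclusive = flat fitted curve at 30% to 70% activation, or poor curve fit; inactive = signal decrease, flat curve within 30%, or the rest.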

Assay: HSF-1 reporter activators over prolonged exposure, confirmation, cell-based, mouse, luciferase, cherry-pick, dose (AID 602296);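 also: test compounds applied by themselves with no MG132 co-treatment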
Conditions: NIH3T3-HGL HSF-1 response element luciferase, 48 h; at 26 µM (top of the series)

SMILES | activation
CP(=O)(OCCOc1ccccc1)OCCOc1ccccc1 | inactive: 8.7%
